This passage reports LD50 results from patent US4447437A, “Pharmaceutical composition and method for treatment of peptic ulcer” (priority 1981, dated 1984).

This series is described as follows: Acute oral toxicity in rats. Particulars: rat, in vivo, Wistar rats, female, mortality at 7 days, Litchfield-Wilcoxon method.

As for `CN1CCC2=C(C1)c1ccccc1Cc1ccccc12` [MO-8282, 2-N-methyl-1,2,3,4-tetrahydro-9H-dibenzo[a,e]-pyridino[3,4-c]-cycloheptatriene], the median lethal dose (LD50) (in general, the dose at which mortality reaches 50%) at 168 h is 554 mg/kg.
